Measured values published in patent US20200215099A1, “NON-ANTICOAGULANT SULFATED OR SULFONATED POLYSACCHARIDES” (Baxalta Incorporated, priority 2012, published 2020).

Test system: contact pathway
Test: CAT in normal plasma with and without CTI
Type: biochemical
Conditions: 1 pM hTF, 4 μM PL, ±41 μg/mL CTI, listed as sulfated 6-carboxy-icodextrin (35 kDa; 10.1% S)

## sulfated 6-carboxy-icodextrin [6-carboxy-Icodextrin (unfractionated, batch 2)]
  concentration activating the contact pathway: 33000 ng/mL
